Apparent affinities of Ab-91 variants for a coronavirus HR2 peptide

Binding partner: SARS-CoV-2 spike HR2 peptide, sequence PDVDLGDISGINAS.

The variants keep the light chain, the linker and the frameworks of Ab-91 (scFv order VL, three GGGGS repeats, VH).
VL: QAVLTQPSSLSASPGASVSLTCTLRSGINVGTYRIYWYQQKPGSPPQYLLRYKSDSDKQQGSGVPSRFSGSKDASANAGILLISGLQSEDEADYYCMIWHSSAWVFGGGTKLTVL
VH: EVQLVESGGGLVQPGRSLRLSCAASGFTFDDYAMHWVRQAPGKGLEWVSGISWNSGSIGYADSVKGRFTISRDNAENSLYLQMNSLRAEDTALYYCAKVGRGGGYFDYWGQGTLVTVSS

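The parent was found by panning a naive human phage display library on the peptide. The library (AAYL51) carries one to three amino acid substitutions per variant, with no insertions or deletions. AlphaSeq pools MATa yeast showing the antibodies with MATalpha yeast showing the peptide. Binding brings cells together so that they mate, and sequencing counts the barcode pairs among the diploids. A regression on co-assayed BCL2-family reference pairs converts the normalised counts of each replicate to an apparent Kd. The assay was run in three technical replicates.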

Each variant's VH is given in full.
All variants listed here change G103 of the VH, counted from its first residue.
Values are apparent Kd, the geometric mean of the replicates that gave a signal; lower means stronger binding.
"no signal" marks a missing value. The strain was present, yet no cells mated with the target were sequenced in any replicate, which points to weak or no binding.
For reference, the parent read 72 nM as the reference entry and 7.5 nM as a member of this library.
Nonspecific signal, from three strains lacking the peptide, appeared in 21% of pairings of library AAYL51, centred on 34 µM (5% of these signals below 1.8 µM); values are not corrected for it. Also given: how often the same scFv was detected with the empty control strains.

VH	apparent Kd	detected	signal with controls
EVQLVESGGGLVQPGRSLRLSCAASGFTFDDYAMHWVRQAPGKGLEWVSGIHWNSGSIGYVDSVKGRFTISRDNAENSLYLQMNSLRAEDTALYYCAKVGRGIGYFDYWGQGTLVTVSS	no signal	0 of 3	1 of 9
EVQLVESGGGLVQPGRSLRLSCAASGFTFDDYAFHWVRQAPGKGLEWVSGIEWNSGSIGYADSVKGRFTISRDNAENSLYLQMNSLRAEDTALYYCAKVGRGLGYFDYWGQGTLVTVSS	no signal	0 of 3	1 of 9
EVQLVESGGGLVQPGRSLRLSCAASGFNFDDEAMHWVRQAPGKGLEWVSGISWNSGSIGYADSVKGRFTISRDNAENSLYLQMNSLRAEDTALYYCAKVGRGDGYFDYWGQGTLVTVSS	10 µM	3 of 3	1 of 9
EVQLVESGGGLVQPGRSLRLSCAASGFTFDDGAMHWVRQAPGKGLEWVSGISWNDGSIGYADSVKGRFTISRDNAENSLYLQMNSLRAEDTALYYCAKVGRGIGYFDYWGQGTLVTVSS	no signal	0 of 3	0 of 9
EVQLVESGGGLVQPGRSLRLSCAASGFTFDDYALHWVRQAPGKGLEWVSGISWNSGSIGYTDSVKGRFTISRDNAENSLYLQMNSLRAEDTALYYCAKVGRGNGYFDYWGQGTLVTVSS	75 µM	3 of 3	5 of 9
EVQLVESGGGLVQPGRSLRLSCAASGFTFDDYAMHWVRQAPGKGLEWVSGISWRSGSIGYADSVSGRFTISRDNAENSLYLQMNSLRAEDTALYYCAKVGRGPGYFDYWGQGTLVTVSS	2.3 µM	1 of 3	0 of 9
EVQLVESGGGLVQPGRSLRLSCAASGFTFDDYAMHWVRQAPGKGLEWVSWISWNSGSIGYADSVKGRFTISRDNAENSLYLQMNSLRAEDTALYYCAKVGRGPGYFQYWGQGTLVTVSS	86 µM	3 of 3	6 of 9
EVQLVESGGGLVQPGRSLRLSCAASGFTFDDYAMHWVRQAPGKGLEWVSGIFWNSGSIGYADSVKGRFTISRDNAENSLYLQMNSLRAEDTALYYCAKVGRGQGCFDYWGQGTLVTVSS	410 µM	1 of 3	1 of 9
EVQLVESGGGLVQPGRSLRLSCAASGFTFDDYAMHWVRQAPGKGLEWVSGISWNSGSIFYADSVKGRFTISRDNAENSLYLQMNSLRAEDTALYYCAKVGRGPGYFDYWGQGTLVTVSS	no signal	0 of 3	0 of 9
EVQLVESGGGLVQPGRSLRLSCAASGFTFDDYAMHWVRQAPGKGLEWVSWISWNSFSIGYADSVKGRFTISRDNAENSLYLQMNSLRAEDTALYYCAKVGRGYGYFDYWGQGTLVTVSS	no signal	0 of 3	2 of 9
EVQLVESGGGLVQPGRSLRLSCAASGFTFDDLAMHWVRQAPGKGLEWVSKISWNSGSIGYADSVKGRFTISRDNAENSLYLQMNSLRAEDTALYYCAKVGRGRGYFDYWGQGTLVTVSS	4.0 µM	2 of 3	0 of 9
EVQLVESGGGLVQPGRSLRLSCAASGFTFDDYAMTWVRQAPGKGLEWVSGISWNSGSIGYADSWKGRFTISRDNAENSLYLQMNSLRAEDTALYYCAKVGRGDGYFDYWGQGTLVTVSS	no signal	0 of 3	0 of 9
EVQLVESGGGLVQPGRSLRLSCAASGFTADDYAMHWVRQAPGKGLEWVSGISWNSGSIGYADSVKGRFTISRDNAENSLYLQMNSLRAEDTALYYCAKVPRGNGYFDYWGQGTLVTVSS	no signal	0 of 3	2 of 9
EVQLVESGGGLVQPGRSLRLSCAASGFTFDDYAMHWVRQAPGKGLEWVSGISWNSGSIGHADSVKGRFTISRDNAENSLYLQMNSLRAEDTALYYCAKVSRGVGYFDYWGQGTLVTVSS	1.8 µM	1 of 3	0 of 9

Extract of 2 entries:

VH	apparent Kd	detected	signal with controls
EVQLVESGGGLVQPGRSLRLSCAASGFTFDDYAMHWVRQAPGKGLEWVSGISWNSGSIGHADSVKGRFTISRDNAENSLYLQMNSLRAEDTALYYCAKVSRGVGYFDYWGQGTLVTVSS	1.8 µM	1 of 3	0 of 9
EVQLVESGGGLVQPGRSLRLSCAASGFTFDDYAMHWVRQAPGKGLEWVSWISWNSGSIGYADSVKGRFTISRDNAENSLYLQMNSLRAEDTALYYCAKVGRGPGYFQYWGQGTLVTVSS	86 µM	3 of 3	6 of 9

Data: MIT Lincoln Laboratory AlphaSeq set, Engelhart et al. 2022, doi:10.1038/s41597-022-01779-4, as distributed in FLAb.